{"source": "IntAct's records for PubMed 16282588", "parents": {"B1": {"name": "G/T mismatch-specific thymine DNA glycosylase (Homo sapiens), Q13569 (parent)", "chain": "MEAENAGSYSLQQAQAFYTFPFQQLMAEAPNMAVVNEQQMPEEVPAPAPAQEPVQEAPKGRKRKPRTTEPKQPVEPKKPVESKKSGKSAKSKEKQEKITDTFKVKRKVDRFNGVSEAELLTKTLPDILTFNLDIVIIGINPGLMAAYKGHHYPGPGNHFWKCLFMSGLSEVQLNHMDDHTLPGKYGIGFTNMVERTTPGSKDLSSKEFREGGRILVQKLQKYQPRIAVFNGKCIYEIFSKEVFGVKVKNLEFGLQPHKIPDTETLCYVMPSSSARCAQFPRAQDKVHYYIKLKDLRDQLKGIERNMDVQEVQYTFDLQLAQEDAKKMAVKEEKYDPGYEAAYGGAYGENPCSSEPCGFSSNGLIESVELRGESAFSGIPNGQWMTQSFTDQIPSFSNHCGTQEQEEESHA"}}, "key": {"[1]": {"variants_of": "B1", "conditions": "with ncoa1_human NCOA1, Q15788"}, "esr1_mouse Esr1, P19785": {"variants_of": "B1", "conditions": "with esr1_mouse Esr1, P19785"}}, "data": [{"variant": "Y334A;Y338A", "values": [{"measurement": "effect of a mutation on the interaction", "setting": "[1]", "result": "decreasing interaction strength"}, {"measurement": "effect of a mutation on the interaction", "setting": "esr1_mouse Esr1, P19785", "result": "with no effect"}]}, {"variant": "Y334A;Y338A;Y342A;Y346A", "values": [{"measurement": "effect of a mutation on the interaction", "setting": "[1]", "result": "disrupting interaction strength"}, {"measurement": "effect of a mutation on the interaction", "setting": "esr1_mouse Esr1, P19785", "result": "with no effect"}]}, {"variant": "Y334F;Y338F", "values": [{"measurement": "effect of a mutation on the interaction", "setting": "[1]", "result": "decreasing interaction strength"}, {"measurement": "effect of a mutation on the interaction", "setting": "esr1_mouse Esr1, P19785", "result": "with no effect"}]}, {"variant": "Y334F;Y338F;Y342F;Y346F", "values": [{"measurement": "effect of a mutation on the interaction", "setting": "[1]", "result": "disrupting interaction strength"}, {"measurement": "effect of a mutation on the interaction", "setting": "esr1_mouse Esr1, P19785", "result": "with no effect"}]}, {"variant": "Y342A;Y346A", "values": [{"measurement": "effect of a mutation on the interaction", "setting": "[1]", "result": "decreasing interaction strength"}, {"measurement": "effect of a mutation on the interaction", "setting": "esr1_mouse Esr1, P19785", "result": "with no effect"}]}, {"variant": "Y342F;Y346F", "values": [{"measurement": "effect of a mutation on the interaction", "setting": "[1]", "result": "decreasing interaction strength"}, {"measurement": "effect of a mutation on the interaction", "setting": "esr1_mouse Esr1, P19785", "result": "with no effect"}]}, {"variant": "C351A;C356A", "values": [{"measurement": "effect of a mutation on the interaction", "setting": "[1]", "result": "with no effect"}, {"measurement": "effect of a mutation on the interaction", "setting": "esr1_mouse Esr1, P19785", "result": "with no effect"}]}]}
